In patent US20070032417A1, “Peptides and therapeutic uses thereof” (priority 2002, published 2007):

Tests used:
[1] = target: 6-His tagged Bcl w delta C10 protein (UniProt Q92843); experiment: Biacore solution competition; competitor immobilised mouse wtBimBH3
[2] = target: GST tagged Bcl w delta C29 protein (UniProt Q92843); experiment: AlphaScreen competition, GST detection; competitor biotinylated Bim BH3-26 peptide
Bcl-2 ΔC22 = Bcl-2 ΔC22 (UniProt P10415); experiment: Biacore solution competition; competitor immobilised mouse wtBimBH3; head prints Bcl-w ΔC22, text says Bcl-2 ΔC22

IC50 [1]: 6 nM | IC50 [2]: 0.1 nM | IC50 (Bcl-2 ΔC22): 2.6 nM
Substance: hsBimL/Bod (81-106), … (peptide)
